Test results taken from US20230151003A1, “COMPOUNDS AND METHODS OF USE” (Exelixis, Inc., priority 2020, published 2023).

The chains behind the UniProt entries cited, without tags or fusion partners. Residues count along the entry.
UniProt P30530, 26-894 limits assumed: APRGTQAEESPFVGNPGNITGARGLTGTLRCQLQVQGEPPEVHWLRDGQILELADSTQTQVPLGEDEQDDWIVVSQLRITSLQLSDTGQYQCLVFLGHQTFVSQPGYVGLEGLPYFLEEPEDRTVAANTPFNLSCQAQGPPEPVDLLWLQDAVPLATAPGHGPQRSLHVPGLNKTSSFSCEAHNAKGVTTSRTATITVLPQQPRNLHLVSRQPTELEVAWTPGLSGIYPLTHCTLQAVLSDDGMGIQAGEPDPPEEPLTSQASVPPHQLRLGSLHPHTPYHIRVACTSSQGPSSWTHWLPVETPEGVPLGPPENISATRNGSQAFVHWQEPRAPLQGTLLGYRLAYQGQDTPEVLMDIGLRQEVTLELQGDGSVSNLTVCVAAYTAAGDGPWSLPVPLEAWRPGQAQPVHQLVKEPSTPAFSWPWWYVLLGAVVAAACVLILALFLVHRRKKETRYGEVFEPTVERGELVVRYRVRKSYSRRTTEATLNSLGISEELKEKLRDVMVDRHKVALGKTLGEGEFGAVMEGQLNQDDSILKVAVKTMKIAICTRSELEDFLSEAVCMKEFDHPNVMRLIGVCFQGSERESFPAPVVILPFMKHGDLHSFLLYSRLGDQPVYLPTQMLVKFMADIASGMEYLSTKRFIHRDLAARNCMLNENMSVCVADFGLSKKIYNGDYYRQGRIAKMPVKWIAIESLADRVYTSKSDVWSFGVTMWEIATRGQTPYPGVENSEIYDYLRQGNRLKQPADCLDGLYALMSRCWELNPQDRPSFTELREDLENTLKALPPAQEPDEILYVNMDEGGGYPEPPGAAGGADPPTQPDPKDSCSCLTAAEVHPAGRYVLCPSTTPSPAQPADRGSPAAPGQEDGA
UniProt P30530, 473-894 limits assumed: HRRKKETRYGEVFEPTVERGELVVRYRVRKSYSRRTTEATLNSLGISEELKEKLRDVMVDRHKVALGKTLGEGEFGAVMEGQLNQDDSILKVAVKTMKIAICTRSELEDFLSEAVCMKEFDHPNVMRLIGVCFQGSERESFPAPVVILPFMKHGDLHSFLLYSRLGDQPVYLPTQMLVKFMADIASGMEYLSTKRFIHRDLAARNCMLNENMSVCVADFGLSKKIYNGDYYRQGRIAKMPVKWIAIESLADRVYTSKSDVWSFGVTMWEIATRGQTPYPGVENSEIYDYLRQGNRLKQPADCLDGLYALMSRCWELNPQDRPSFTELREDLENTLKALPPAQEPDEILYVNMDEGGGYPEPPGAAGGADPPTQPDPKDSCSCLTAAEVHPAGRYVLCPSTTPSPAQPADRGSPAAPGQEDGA
UniProt Q12866, 21-999 limits assumed: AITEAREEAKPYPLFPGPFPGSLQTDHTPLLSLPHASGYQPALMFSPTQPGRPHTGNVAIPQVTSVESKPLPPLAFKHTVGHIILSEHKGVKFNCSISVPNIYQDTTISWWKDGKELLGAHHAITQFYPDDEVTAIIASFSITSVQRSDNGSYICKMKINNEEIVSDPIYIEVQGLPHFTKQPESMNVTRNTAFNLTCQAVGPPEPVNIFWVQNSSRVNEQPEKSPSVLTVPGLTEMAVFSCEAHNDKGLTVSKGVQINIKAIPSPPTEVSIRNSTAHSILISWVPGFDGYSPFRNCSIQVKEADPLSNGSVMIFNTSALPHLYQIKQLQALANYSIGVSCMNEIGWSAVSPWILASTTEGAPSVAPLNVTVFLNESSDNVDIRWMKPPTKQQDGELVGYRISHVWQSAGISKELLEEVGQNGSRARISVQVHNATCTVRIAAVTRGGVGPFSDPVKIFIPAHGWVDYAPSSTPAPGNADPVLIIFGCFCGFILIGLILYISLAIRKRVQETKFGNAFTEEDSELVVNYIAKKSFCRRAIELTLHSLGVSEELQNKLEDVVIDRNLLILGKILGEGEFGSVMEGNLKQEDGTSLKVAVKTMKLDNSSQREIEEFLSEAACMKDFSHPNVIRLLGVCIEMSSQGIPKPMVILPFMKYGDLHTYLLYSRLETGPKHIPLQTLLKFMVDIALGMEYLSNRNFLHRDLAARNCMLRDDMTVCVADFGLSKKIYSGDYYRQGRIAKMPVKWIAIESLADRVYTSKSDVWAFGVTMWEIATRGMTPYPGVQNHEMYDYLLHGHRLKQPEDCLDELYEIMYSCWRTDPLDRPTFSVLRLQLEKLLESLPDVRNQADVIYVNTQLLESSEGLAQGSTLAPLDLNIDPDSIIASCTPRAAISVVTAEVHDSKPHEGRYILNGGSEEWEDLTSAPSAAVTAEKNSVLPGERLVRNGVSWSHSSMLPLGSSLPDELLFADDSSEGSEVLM
UniProt Q12866, 528-999 limits assumed: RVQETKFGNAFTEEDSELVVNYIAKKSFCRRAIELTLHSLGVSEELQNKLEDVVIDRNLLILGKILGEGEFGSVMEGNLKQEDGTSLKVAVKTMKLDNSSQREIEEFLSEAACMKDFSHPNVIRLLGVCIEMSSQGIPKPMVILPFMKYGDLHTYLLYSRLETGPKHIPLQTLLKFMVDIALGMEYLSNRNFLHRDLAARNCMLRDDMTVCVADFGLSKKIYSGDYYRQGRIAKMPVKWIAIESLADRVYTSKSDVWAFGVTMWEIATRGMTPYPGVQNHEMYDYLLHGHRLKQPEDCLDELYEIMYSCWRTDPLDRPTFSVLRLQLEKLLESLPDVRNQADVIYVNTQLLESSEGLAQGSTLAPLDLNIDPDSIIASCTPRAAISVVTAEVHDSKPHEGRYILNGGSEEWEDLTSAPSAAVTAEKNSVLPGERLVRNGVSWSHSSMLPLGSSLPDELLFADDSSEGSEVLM
UniProt P08581, 25-1390 limits assumed: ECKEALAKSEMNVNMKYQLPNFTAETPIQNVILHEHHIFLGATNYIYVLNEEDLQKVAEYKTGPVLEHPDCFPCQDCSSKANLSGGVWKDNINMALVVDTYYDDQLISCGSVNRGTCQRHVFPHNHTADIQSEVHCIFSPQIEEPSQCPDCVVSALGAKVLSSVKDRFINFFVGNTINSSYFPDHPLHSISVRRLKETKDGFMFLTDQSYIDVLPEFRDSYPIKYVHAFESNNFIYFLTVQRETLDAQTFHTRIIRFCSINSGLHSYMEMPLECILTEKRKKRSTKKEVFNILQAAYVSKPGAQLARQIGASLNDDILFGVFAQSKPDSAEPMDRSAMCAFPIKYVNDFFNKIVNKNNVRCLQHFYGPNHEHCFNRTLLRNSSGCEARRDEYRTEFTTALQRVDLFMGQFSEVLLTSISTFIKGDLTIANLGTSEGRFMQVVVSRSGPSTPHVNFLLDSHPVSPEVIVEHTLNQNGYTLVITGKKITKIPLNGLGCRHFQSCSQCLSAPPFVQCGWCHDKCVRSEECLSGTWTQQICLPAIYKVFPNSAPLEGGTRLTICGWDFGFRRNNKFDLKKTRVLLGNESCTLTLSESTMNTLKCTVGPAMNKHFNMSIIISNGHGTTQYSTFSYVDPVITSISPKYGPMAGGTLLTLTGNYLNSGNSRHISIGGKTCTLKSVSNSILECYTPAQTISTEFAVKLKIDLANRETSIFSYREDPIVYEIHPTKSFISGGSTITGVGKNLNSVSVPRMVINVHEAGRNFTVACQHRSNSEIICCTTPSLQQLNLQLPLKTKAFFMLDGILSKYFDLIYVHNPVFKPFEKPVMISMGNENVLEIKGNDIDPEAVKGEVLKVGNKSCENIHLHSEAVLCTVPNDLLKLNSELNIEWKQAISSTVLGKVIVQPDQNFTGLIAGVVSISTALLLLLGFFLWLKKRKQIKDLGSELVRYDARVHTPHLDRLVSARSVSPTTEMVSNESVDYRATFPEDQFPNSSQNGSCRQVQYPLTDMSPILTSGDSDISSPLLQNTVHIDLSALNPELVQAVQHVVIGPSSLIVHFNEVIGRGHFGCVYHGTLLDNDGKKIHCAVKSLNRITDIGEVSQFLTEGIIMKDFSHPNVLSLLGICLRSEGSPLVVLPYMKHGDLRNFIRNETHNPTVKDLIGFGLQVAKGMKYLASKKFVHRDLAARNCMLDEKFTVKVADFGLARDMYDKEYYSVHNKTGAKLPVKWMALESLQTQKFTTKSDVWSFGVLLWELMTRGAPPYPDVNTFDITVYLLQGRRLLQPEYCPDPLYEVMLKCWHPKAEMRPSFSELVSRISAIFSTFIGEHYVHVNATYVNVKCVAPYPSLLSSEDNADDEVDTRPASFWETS
UniProt P08581, 956-1390 limits assumed: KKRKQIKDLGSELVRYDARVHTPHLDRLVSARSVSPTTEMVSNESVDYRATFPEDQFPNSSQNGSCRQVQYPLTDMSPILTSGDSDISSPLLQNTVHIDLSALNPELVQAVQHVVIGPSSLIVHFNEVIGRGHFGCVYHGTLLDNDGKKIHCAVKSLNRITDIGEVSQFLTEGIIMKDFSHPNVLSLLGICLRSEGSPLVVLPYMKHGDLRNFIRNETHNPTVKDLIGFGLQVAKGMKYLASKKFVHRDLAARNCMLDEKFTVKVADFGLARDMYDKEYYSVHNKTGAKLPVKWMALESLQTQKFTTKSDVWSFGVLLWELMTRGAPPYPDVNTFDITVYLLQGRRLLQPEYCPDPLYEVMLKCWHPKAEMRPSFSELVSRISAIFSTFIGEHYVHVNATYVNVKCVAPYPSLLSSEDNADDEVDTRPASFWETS
UniProt P35968, 20-1356 limits assumed: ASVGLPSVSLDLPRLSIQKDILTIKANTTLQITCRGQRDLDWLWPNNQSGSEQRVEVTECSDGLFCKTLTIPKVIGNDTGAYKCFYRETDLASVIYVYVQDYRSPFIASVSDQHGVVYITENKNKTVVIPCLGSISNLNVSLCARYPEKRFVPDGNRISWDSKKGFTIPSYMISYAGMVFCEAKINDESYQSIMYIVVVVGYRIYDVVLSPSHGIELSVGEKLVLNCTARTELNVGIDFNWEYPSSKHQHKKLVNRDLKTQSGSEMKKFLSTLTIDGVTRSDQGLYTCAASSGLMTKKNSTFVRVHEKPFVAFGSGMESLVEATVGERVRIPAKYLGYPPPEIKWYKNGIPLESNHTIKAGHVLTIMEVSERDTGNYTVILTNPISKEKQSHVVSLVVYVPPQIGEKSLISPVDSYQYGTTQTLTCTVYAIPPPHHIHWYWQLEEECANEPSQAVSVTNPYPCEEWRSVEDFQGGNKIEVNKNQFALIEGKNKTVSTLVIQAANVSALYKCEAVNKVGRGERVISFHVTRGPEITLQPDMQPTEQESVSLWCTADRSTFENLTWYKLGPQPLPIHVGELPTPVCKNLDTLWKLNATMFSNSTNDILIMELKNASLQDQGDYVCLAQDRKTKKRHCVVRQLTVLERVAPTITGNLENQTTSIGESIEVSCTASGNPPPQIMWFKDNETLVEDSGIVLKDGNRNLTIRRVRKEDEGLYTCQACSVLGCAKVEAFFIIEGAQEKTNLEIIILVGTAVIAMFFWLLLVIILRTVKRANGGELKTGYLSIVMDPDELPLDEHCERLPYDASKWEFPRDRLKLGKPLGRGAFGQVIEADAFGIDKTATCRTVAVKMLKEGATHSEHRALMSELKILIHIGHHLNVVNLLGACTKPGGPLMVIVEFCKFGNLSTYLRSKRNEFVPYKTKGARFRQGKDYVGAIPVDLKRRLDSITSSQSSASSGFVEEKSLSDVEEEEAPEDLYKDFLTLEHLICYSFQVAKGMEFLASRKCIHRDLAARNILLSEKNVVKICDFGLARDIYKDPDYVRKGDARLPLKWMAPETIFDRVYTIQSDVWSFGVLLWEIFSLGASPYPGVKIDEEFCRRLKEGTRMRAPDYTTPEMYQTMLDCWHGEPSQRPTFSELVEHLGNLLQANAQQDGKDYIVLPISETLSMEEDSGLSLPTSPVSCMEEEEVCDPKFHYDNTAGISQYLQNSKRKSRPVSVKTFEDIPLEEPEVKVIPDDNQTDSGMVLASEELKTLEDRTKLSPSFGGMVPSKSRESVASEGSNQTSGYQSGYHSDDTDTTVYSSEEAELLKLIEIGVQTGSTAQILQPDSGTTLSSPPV
UniProt P35968, 790-1356 limits assumed: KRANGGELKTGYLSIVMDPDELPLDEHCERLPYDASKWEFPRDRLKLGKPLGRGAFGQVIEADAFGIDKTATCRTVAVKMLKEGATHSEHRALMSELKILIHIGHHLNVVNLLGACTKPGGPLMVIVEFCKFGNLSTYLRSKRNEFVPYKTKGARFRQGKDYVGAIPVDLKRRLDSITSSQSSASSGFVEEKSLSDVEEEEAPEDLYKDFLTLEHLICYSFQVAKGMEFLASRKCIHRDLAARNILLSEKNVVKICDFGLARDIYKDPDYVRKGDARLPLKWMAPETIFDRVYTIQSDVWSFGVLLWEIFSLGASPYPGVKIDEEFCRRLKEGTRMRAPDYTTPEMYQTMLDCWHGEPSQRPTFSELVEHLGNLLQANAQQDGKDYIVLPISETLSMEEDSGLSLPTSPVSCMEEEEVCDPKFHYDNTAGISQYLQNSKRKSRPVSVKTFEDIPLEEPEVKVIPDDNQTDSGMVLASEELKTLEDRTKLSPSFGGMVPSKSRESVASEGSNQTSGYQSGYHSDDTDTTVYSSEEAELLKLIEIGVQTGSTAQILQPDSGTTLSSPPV

Legend:
AXL [1] = target: T1, AXL (Homo sapiens, UniProt P30530); assay: AXL autophosphorylation ELISA in A-172 cells; details: read-out: Axl IC50, Table 3 Cellular Activities, Gas6-stimulated, phospho-AXL ELISA
Protocol: A-172 glioblastoma cells (ATCC #CRL-1620) were seeded at 2.5×10^5 cells/well onto 24-well plates (Greiner #662165), in DMEM (Thermo Fisher #11995-040) containing 10% FBS (Thermo Fisher #26140-079), 1% MEM NEAA (Thermo Fisher #11140-050), 1% GlutaMax (Thermo Fisher #35050-061), and 1% Penicillin Streptomycin (Thermo Fisher #15140-122). A-172 cells were incubated at 37° C., 5% CO2 for 24 h and then starved for 24 h in serum-free medium. Test compounds were serially diluted to produce an 8-point dose curve in fresh serum-free medium to a final concentration of 0.3% DMSO (vehicle) and added to the cells and incubated for 1 h. Cells were then stimulated with 1 μg/mL recombinant human Gas6 (R&D Systems #885-GSB-500) for 15 min, washed with cold PBS, and immediately lysed with 150 μL of cold 1× lysis buffer [20 mM Tris, 137 mM sodium chloride, 2 mM EDTA, 10% glycerol, 1% NP-40 alternative, 1 mM activated sodium orthovanadate, 1 mM PefaBloc SC (Sigma-Aldrich #11429868001), protease/phosphatase inhibitor tablet (Thermo Fisher #A32959)]. Lysates were collected and 100 μL/well added into the human phospho-AXL DuoSet IC ELISA (R&D Systems #DYC2228-2). Assay was performed according to manufacturer's instructions and sample phospho-AXL concentrations were extrapolated using human phospho-AXL control (R&D Systems #841645) as a standard. Positive control wells (100% activity) contained Gas6-stimulated, DMSO-treated cell lysates. Negative control wells (0% activity) contained Gas6-stimulated, reference inhibitor-treated cell lysates. IC50 values were calculated by nonlinear regression analysis using a 4-parameter logistic curve fit in ActivityBase XE (IDBS).

Mer [2] = target: T2, Mer (Homo sapiens, UniProt Q12866); assay: Mer autophosphorylation ELISA in transient transfected 293A cells; details: read-out: Mer IC50; Table 3 Cellular Activities; MERTK-transfected 293A cells, phospho-Mer ELISA
Protocol: 293A cells (Thermo Fisher #R70507) were seeded at 1.5×10^6 cells/well onto 100 mm dish (Greiner #664169), in DMEM (Thermo Fisher #11995-040) containing 10% FBS (Thermo Fisher #26140-079), 1% MEM NEAA (Thermo Fisher #11140-050), 1% GlutaMax (Thermo Fisher #35050-061), and 1% Penicillin Streptomycin (Thermo Fisher #15140-122). 293A cells were incubated at 37° C., 5% CO2 for 24 h and then transfected with 6μg MERTK DNA (Genecopoeia #EX-Z8208-M02) using TransIT LT1 transfection reagent (Mirus-Bio #MIR2305). After 24 h incubation, the transfected 293A cells were seeded at 1×10^5 cells/well onto 96-well plates (Corning #3904) in DMEM growth medium overnight. Test compounds were serially diluted to produce an 8-point dose curve in fresh serum-free medium to a final concentration of 0.3% DMSO (vehicle) and added to the cells and incubated for 1 h. Cells were then immediately lysed with 150 μL of cold 1× lysis buffer […], 137 mM sodium chloride, 2 mM EDTA, 10% glycerol, 1% NP-40 alternative, 1 mM activated sodium orthovanadate, 1 mM PefaBloc SC (Sigma-Aldrich #11429868001), protease/phosphatase inhibitor tablet (Thermo Fisher #A32959)]. Lysates were clarified by centrifugation and 50 μL/well added into the human phospho-Mer DuoSet IC ELISA (R&D Systems #DYC2579-2). Assay was performed according to manufacturer's instructions and sample phospho-Mer concentrations were extrapolated using human phospho-Mer control (R&D Systems #841793) as a standard. Positive control wells (100% activity) contained DMSO-treated cell lysates. Negative control wells (0% activity) contained reference inhibitor-treated cell lysates. IC50 values were calculated by nonlinear regression analysis using a 4-parameter logistic curve fit in ActivityBase XE (IDBS).

Met [3] = target: T3, Met (Homo sapiens, UniProt P08581); assay: Met autophosphorylation ELISA in PC-3 cells; details: read-out: c-Met IC50, Table 3 Cellular Activities, HGF-stimulated, phospho-Met ELISA
Protocol: PC-3 prostate cancer cells (ATCC #CRL-1435) were seeded at 4×10^4 cells/well onto 24-well plates (Greiner #662165), in DMEM (Thermo Fisher #11995-040) containing 10% FBS (Thermo Fisher #26140-079), 1% MEM NEAA (Thermo Fisher #11140-050), 1% GlutaMax (Thermo Fisher #35050-061), and 1% Penicillin Streptomycin (Thermo Fisher #15140-122). PC-3 cells were incubated at 37° C., 5% CO2 for 24 h and then starved for 3 h in serum-free medium. Test compounds were serially diluted to produce an 8-point dose curve in fresh serum-free medium to a final concentration of 0.3% DMSO (vehicle) and added to the cells and incubated for 1 h. Cells were then stimulated with 100 ng/mL recombinant human HGF (R&D Systems #294-HG-250) for 10 min, washed with cold PBS, and immediately lysed with 130 μL of cold 1× lysis buffer [20 mM Tris, 137 mM sodium chloride, 2 mM EDTA, 10% glycerol, 1% NP-40 alternative, 1 mM activated sodium orthovanadate, 1 mM PefaBloc SC (Sigma-Aldrich #11429868001), protease/phosphatase inhibitor tablet (Thermo Fisher #A32959)]. Lysates were clarified by centrifugation and 100 μL/well added into the PathScan phospho-Met (panTyr) Sandwich ELISA (Cell Signaling Technology #7333). Assay was performed according to manufacturer's instructions. Positive control wells (100% activity) contained HGF-stimulated, DMSO-treated cell lysates. Negative control wells (0% activity) contained HGF-stimulated, reference inhibitor-treated cell lysates. IC50 values were calculated by nonlinear regression analysis using a 4-parameter logistic curve fit in ActivityBase XE (IDBS).

KDR [4] = target: T4, KDR (Homo sapiens, UniProt P35968); assay: KDR autophosphorylation ELISA in HUVEC cells; details: read-out: KDR IC50, Table 3 Cellular Activities, VEGF165-stimulated, phospho-KDR ELISA
Protocol: Human umbilical vein endothelial cells or HUVEC (Lonza #C2519A) were seeded at 2×10^4 cells/well onto 96-well plates (Corning #3904), in EGM-2 growth medium (Lonza #CC-3162) containing 1% Penicillin Streptomycin (Thermo Fisher #15140-122). HUVEC cells were incubated at 37° C., 5% CO2 for 24 h and then starved for 24 h in serum-free EBM-2 basal medium (Lonza #CC-3156) containing 1% Penicillin Streptomycin. Test compounds were serially diluted to produce an 8-point dose curve in fresh serum-free medium to a final concentration of 0.3% DMSO (vehicle) and added to the cells and incubated for 1 h. Cells were then stimulated with 100 ng/mL recombinant human VEGF165 (R&D Systems #293-VE-500) for 5 min, washed with cold PBS, and immediately lysed with 130 μL of cold 1× lysis buffer [20 mM Tris, 137 mM sodium chloride, 2 mM EDTA, 10% glycerol, 1% NP-40 alternative, 1 mM activated sodium orthovanadate, 1 mM PefaBloc SC (Sigma-Aldrich #11429868001), protease/phosphatase inhibitor tablet (Thermo Fisher #A32959)]. Lysates were collected and 100 μL/well added into the human phospho-KDR DuoSet IC ELISA (R&D Systems #DYC1766-2). Assay was performed according to manufacturer's instructions and sample phospho-KDR concentrations were extrapolated using human phospho-KDR control (R&D Systems #841421) as a standard. Positive control wells (100% activity) contained VEGF165-stimulated, DMSO-treated cell lysates. Negative control wells (0% activity) contained non-stimulated cell lysates. IC50 values were calculated by nonlinear regression analysis using a 4-parameter logistic curve fit in ActivityBase XE (IDBS).

AXL [5] = target: T1, AXL; assay: Human AXL kinase assay (HTRF KinEase); assay type: biochemical; details: read-out: Axl IC50, Table 2 Biological Activities, ATP at Km (1.0 μM)
Protocol: (§1) Kinase activity and compound inhibition were investigated using the HTRF® KinEase assay (Cisbio Cat #62TKOPEB) per manufacturer's instructions. In short, compounds were delivered in 300 nL volumes at 10 different concentrations in DMSO (3% final) to empty 384-well assay plates (Corning cat #3824). A mixture of enzyme, 1 μM biotynlated peptide substrate, and buffer in 10 μL volume was added. The assay was started upon the addition of ATP (at Km). The 10 μL reaction was incubated at room temperature. The reaction was stopped upon the addition of detection buffer containing streptavidin-XL665 (5 μL) and TK antibody-Eu3+ (5 μL). After a 60 min incubation at room temperature, the fluorescence at 665 nm and 620 nm was read on an Envision microplate reader (Perkin Elmer). Kinase activity normalized to DMSO (100% activity) and reference compound at 1 μM and (0% activity) was calculated using the fluorescence ratio […]. IC50 values were calculated by nonlinear regression analysis using a 4-parameter logistic curve fit in ActivityBase XE (IDBS).
Human AXL (residues 464-885; CarnaBio, 1 ng/ well) was incubated with enzymatic buffer (Cisbio) supplemented with 5 mM MgCl2, 1 mM DTT, and Supplemental Enzymatic Buffer (SEB; Cisbio). The mixture was added to the pre-plated compounds. […] The kinase activity was calculated as stated above and the IC50 values were reported.

Mer [6] = target: T2, Mer; assay: Human MER kinase assay (HTRF KinEase); details: read-out: Mer IC50, Table 2 Biological Activities, ATP at Km (40 μM)
Protocol: as §1
Human MER (residues 528-999; CarnaBio, 1 ng/ well) was incubated with enzymatic buffer (Cisbio) supplemented with 5 mM MgCl2 and 1 mM DTT. The mixture was added to the pre-plated compounds. The reaction was initiated upon addition of ATP at Km (40 μM). […] The kinase activity was calculated as stated above and the IC50 values were reported.

Met [7] = target: T3, Met; assay: Human MET kinase assay (HTRF KinEase); details: read-out: c-Met IC50, Table 2 Biological Activities, ATP at Km (3.0 μM)
Protocol: as §1
Human MET (residues 956-1390; CarnaBio, 0.1 ng/ well) was incubated with enzymatic buffer (Cisbio) supplemented with 5 mM MgCl2, 1 mM DTT and 1 mM MnCl2. The mixture was added to the pre-plated compounds. […] The kinase activity was calculated as stated above and the IC50 values were reported.

KDR [8] = target: T4, KDR; assay: Human KDR kinase assay (HTRF KinEase); details: read-out: KDR IC50, Table 2 Biological Activities, ATP at Km (4.0 μM)
Protocol: as §1
Human KDR (residues 790-1356; CarnaBio, 0.1 ng/ well) was incubated with enzymatic buffer (Cisbio) supplemented with 5 mM MgCl2, 1 mM MnCl2, and 1 mM DTT. The mixture was added to the pre-plated compounds. […] The kinase activity was calculated as stated above and the IC50 values were reported.

SMILES	IC50 (AXL [1]) [nM]	IC50 (Mer [2]) [nM]	IC50 (Met [3]) [nM]	IC50 (KDR [4]) [nM]	IC50 (AXL [5]) [nM]	IC50 (Mer [6]) [nM]	IC50 (Met [7]) [nM]	IC50 (KDR [8]) [nM]
COc1cc2c(Oc3ccc(NC(=O)c4ccc(C)n(-c5ccc(F)cn5)c4=O)cc3F)ccnc2cn1	< 100	< 100	< 100	< 100				
COc1cnc2c(Oc3ccc(NC(=O)c4ccc(C)n(-c5ccc(F)cn5)c4=O)cc3)ccnc2c1	< 100	< 100	< 100	< 100	< 100	< 100	< 100	300 to 1000
COCc1nc(C)c(-c2ccco2)c(O)c1C(=O)Nc1ccc(Oc2ccnc3cc(OC)c(OC)nc23)c(F)c1	< 100	< 100	< 100	< 100				
